The record followed here is US20010046996A1, “Use of a compound for preparing a drug” (priority 2000, published 2001).

The test system of this test is Lewis rats. The test can be described thus: EAE (experimental autoimmune encephalomyelitis) rat model for MS, clinical score. It is filed as in vivo. The note with it: FIG. 1; B-220 daily 6 mg/animal; Interferon-beta daily 3×10^5 U/animal; versus negative control.

B1: Interferon-beta: Interferon-beta (trademarks Avonex and Betaseron), drug used with the aim to cure or delay the MS disease (protein, UniProt P01574 22-187, looked up)
Interferon beta: MSYNLLGFLQRSSNFQCQKLLWQLNGRLEYCLKDRMNFDIPEEIKQLQQFQKEDAALTIYEMLQNIFAIFRQDSSSTGWNETIVENLLANVYHQINHLKTVLEEKLEKEDFTRGKLMSSLHLKRYYGRILHYLKAKEYSHCAWTIVRVEILRNFYFINRLTGYLRN
Consider B1, for which the “reduction of the CNS symptoms (clinical score)” value is reported as “no reducing effect”.
